# Laboratory results from PubChem BioAssay AID901 (National Center for Advancing Translational Sciences (NCATS), 2007).
# Protein sequences, listed by entry. Tags and fused reporters are not part of them.
# UniProt P97697, whole entry: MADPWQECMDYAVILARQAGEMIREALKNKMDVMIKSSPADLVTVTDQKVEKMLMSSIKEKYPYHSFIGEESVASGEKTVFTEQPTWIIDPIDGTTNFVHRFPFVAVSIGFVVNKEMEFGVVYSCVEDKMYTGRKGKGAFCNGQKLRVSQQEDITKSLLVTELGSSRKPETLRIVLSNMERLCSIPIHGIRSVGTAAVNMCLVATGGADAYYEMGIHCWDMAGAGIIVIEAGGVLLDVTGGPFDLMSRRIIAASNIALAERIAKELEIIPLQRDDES
# The list shows a part of the results, in another mix than the full data. Some tests of the compounds listed are not included; inactive here does not mean inactive elsewhere. Records with an inconclusive call do not appear. Active and inactive are the calls of the source. Calls follow the shape of the dose curve; as a rule, active = well fitted curve in the direction sought with a large enough effect in the signal ratio (not every such curve was filed as active); inconclusive = small, poorly fitted or top-dose-only effect, or a change in a side signal; inactive = no such curve, though single readings can be large or run the other way; the % refers to the signal ratio.
# Molecular target: Inositol monophosphatase 1 (Rattus norvegicus) (UniProt P97697)
# Experiment: qHTS Assay for Identifying the Cell-Membrane Permeable IMPase Inhibitors;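 also: plate controls were DMSO basal wells for no effect and reference inhibitor wells for full effect; higher means more IMPase inhibition seen as more IP1 and lower FRET ratio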
# Details: CHO-M1 cells, HTRF TR-FRET ratio; at 46.1 µM (top of the series)
# From the text: NCGC IMPase Assay Overview
# Lithium has been widely used for the treatment of bipolar disorder. But lithium has a narrow therapeutic index and it can cause side effects such as thirst, weight gain, tremor, polyuria and memory problems. Although the mechanism for lithium action in treatment of bipolar disorder is still not fully understood, inhibition of inositol monophosphatase (IMPase) and the subsequent depletion of the inositol pool in living cells have been implicated as the primary therapeutic benefit of lithium therapy. Therefore, a selective IMPase inhibitor with reduced side effects might be a good drug candidate to replace lithium for the treatment of bipolar disorder. Several IMPase inhibitors have been discovered previously. However, they are not suitable for therapeutic use because of their poor cell membrane penetrability or oral bioavailability; the development of new cell-permeable IMPase inhibitors is needed.
# IMPase catalyzes the hydrolysis of inositol-1-phosphate (IP1) to release free inositol. Binding of an agonist to a Gq coupled GPCR results in the activation of PLC, which hydrolyzes the PIP2 to form inositol-1,4,5-trisphosphate (IP3) and diacyl glycerol (DAG). While DAG activates protein kinase C (PKC), IP3 triggers the elevation of intracellular free Ca2+. The IP3 is very rapidly inactivated by hydrolysis to IP2, IP1 and then inositol by a series of enzymes including IMPase. Free inositols are used for synthesis of PI and thus start another inositol cycle.
# To identify new cell-permeable IMPase inhibitors, we developed a cell-based IMPase assay in which the cytosolic IP1 is measured by a time-resolved fluorescence resonance energy transfer (TR-FRET) assay. In this assay, an IP1 specific antibody is used to detect the labeled IP1 tracer. When the cell lysate contains the elevated IP1 due to the inhibition of IMPase, the TR-FRET between the labeled antibody and IP1 tracer is disrupted resulting in a reduction in the total signal. Since the TR-FRET is used, this cell-based assay is a homogenous assay without cell wash and medium change that is suitable for assay miniaturization and HTS.
# NCGC IMPase Assay Protocol Summary
# A Chinese hamster ovary (CHO) cell line stably expressing the M1 receptor (CHO-M1) was obtained from ATCC and maintained in F-12 Kaighn's media (Invitrogen, Carlsbad, CA, 21127) supplemented with 10 % FBS, 100 units/ml penicillin, 100 ug/ml streptomycin and 250 ug/ml geneticin at 37C, 5% CO2 in a humidified atmosphere. Before the assay, aliquots of cells were frozen and stored at -135C. The assay was performed in 1536-well format. […] AC50 values were determined from concentration-response data modeled with the standard Hill equation. […]
# (7) Detect the assay plate (Ex = 320, Em1 =665 and Em2 620) in a ViewLux plate reader. […]
row,Structure (SMILES),inhibition (IP1 accumulation)
1,CC(C)N1C(=O)CC2(CCN(CCOC(=O)C(O)(c3ccccc3)c3ccccc3)CC2)C1=O,inactive: 4.91%
2,CN(C)C1CCCC1OC(=O)C(O)(c1ccccc1)c1ccccc1 (centres undefined),inactive: 14.7%
3,CN(C)c1cccc(C(=O)NCC2(N(C)C)CCCCC2)c1,inactive: -0.198%
4,O=C(OC1CN2CCC1CC2)C(CO)(c1ccccc1)c1ccccc1 (centres undefined),inactive: 17.5%
